ChEMBL document CHEMBL4219138, “Discovery of N-aryl-N'-pyrimidin-4-yl ureas as irreversible L858R/T790M mutant selective epidermal growth factor receptor inhibitors” (Bioorg Med Chem Lett, 2018)

Tests used:
[1] = organism: Homo sapiens; test: Selectivity ratio of IC50 for wild-type EGFR phosphorylation in human A431 cells to IC50 for EGFR L858R/T790M mutant phosphorylation in human NCI-H1975 cells; assay type: cell-based
[2] = organism: Homo sapiens; test: Selectivity ratio of IC50 for recombinant human GST-tagged wild-type EGFR cytoplasmic domain (668 to 1210 residues) to IC50 for recombinant human GST-tagged EGFR L858R/T790M mutant cytoplasmic domain (668 to 1210 residues)

In the case of `C=CC(=O)Nc1cccc(NC(=O)Nc2ccnc(Nc3ccc(N4CCC(N5CCOCC5)CC4)cc3OC)n2)c1`, the Ratio IC50 [1] is reported as 158.

`C=CC(=O)Nc1cccc(NC(=O)Nc2ccnc(Nc3ccc(N4CCOCC4)cc3OC)n2)c1` was tested, and the Ratio IC50 [2] was 15.
